The chains behind the UniProt entries cited, without tags or fusion partners. Residues count along the entry.
UniProt P23284, 34-216: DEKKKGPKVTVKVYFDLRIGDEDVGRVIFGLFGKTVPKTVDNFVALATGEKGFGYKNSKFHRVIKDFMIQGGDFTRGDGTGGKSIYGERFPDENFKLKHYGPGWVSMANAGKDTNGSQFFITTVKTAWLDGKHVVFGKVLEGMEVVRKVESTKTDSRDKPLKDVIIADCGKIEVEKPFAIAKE
UniProt P62937, whole entry: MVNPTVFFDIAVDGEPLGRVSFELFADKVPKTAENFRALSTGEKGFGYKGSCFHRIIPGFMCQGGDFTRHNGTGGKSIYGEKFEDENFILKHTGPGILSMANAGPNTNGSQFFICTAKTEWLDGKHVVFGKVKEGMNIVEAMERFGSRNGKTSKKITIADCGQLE
UniProt P30405, 30-207: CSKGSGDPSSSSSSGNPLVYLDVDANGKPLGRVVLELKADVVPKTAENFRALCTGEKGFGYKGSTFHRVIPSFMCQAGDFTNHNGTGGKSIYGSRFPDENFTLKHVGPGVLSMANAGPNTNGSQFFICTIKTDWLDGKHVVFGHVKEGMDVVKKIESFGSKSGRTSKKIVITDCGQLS

According to article PMC6335623, “A computationally designed binding mode flip leads to a novel class of potent tri-vector cyclophilin inhibitors” (Chemical Science, 2018):

How the values were obtained:
Type in all cases: binding
His-CypB = target: T1, His-CypB (Homo sapiens, UniProt P23284); test: biochemical
T1 construct: made in house; host or cells: E. coli C41 BL21(DE3) ('C41 BL21(DH3)' [sic]); plasmid from the Edinburgh Protein Production Facility
Protocol: (§1) injection protocol (Fig. S9B). […]
(§2) using the same instrument parameters was performed (Fig. S9A).
(§3) Surface Plasmon Resonance (SPR)
(§4) SPR1 – SPR equipment and reagents
(§5) SPR measurements were performed on a BIAcore T200 instrument (GE Healthcare). Ni2+- nitrilotriacetic acid (NTA) sensor chips, 1-ethyl-3-(3- diaminopropyl) carbodiimide hydrochloride (EDC) and Nhydroxysuccinimide (NHS) were purchased from GE Healthcare.
(§6) SPR2 – Immobilization and covalent stabilizations of His-Cyps
(§7) Pure His-cyclophilins were immobilized and covalently stabilized on the NTA sensor chip according to the protocol described [Wear et al., 2017, FEBS OpenBio], using 200 nM concentrations of each protein, in Running Buffer (PBS, pH 7.4; 0.05% surfactant P20, 2% v/v ethanol; 50 µM EDTA), at 30 µl min-1 with 60 second contact times on the activated NTA surfaces.
(§8) (1 picture or pasted object on this page, not shown here) […]
(§9) Buffer (PBS, pH 7.4, 50 µM mM EDTA; 0.05 % v/v surfactant P20; 2 % v/ v ethanol), were injected over the sensor surface, at 100 µl.min -1 with a 90 s contact time and a 90 s dissociation time. […] The apparent on-rate (k+) and off-rate (k-) constants and the equilibrium dissociation constant (K d) were calculated from reference corrected sensorgrams by global fitting of a 1:1 binding model, including a mass transport term, using analysis software ( v.2.02, GE Healthcare) provided with the BIAcore T200 […]

His-CypA = target: T2, His-CypA (Homo sapiens, UniProt P62937); test: Surface plasmon resonance (SPR) kinetic titration, BIAcore T200
T2 construct: made in house; host or cells: E. coli C41 BL21(DE3) ('C41 BL21(DH3)' [sic]); plasmid from the Edinburgh Protein Production Facility
Protocol: as §1, §2, §3, §4, §5, §6, §7, §8, §9

His-CypD = target: T3, His-CypD (Homo sapiens, UniProt P30405); test: as above
T3 construct: made in house; host or cells: E. coli C41 BL21(DE3) ('C41 BL21(DH3)' [sic]); plasmid from the Edinburgh Protein Production Facility
Protocol: as §1, §2, §3, §4, §5, §6, §7, §8, §9

Kd (His-CypB): 0.3 ± 0.2 µM
Kd (His-CypA): 1.7 ± 1 µM
Kd (His-CypD): 2.9 ± 1.2 µM
SMILES: Cl.Cn1cc(CN(Cc2ccc(N)cc2)C(=O)NCC(=O)N2CCCC2c2ccccc2Br)nn1 (stereo not drawn) [Compound 14]
